# In patent US7338958B2, “Sulfoximine-substituted pyrimidines as CDK-and/or VEGF inhibitors, their production and use as pharmaceutical agents” (Schering AG, priority 2003, dated 2008):
# By UniProt entry, the sequences of proteins in these tests, tags left out. Residues count along the entry.
# UniProt P06493, whole entry: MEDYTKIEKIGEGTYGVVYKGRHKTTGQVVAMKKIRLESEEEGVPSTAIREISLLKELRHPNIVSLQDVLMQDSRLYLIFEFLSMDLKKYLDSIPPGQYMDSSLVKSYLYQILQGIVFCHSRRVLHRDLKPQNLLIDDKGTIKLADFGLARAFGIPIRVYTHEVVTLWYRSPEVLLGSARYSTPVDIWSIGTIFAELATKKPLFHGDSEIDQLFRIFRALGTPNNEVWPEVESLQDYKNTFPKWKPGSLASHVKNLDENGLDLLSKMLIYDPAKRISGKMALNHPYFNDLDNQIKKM
# UniProt P35968, 20-1356: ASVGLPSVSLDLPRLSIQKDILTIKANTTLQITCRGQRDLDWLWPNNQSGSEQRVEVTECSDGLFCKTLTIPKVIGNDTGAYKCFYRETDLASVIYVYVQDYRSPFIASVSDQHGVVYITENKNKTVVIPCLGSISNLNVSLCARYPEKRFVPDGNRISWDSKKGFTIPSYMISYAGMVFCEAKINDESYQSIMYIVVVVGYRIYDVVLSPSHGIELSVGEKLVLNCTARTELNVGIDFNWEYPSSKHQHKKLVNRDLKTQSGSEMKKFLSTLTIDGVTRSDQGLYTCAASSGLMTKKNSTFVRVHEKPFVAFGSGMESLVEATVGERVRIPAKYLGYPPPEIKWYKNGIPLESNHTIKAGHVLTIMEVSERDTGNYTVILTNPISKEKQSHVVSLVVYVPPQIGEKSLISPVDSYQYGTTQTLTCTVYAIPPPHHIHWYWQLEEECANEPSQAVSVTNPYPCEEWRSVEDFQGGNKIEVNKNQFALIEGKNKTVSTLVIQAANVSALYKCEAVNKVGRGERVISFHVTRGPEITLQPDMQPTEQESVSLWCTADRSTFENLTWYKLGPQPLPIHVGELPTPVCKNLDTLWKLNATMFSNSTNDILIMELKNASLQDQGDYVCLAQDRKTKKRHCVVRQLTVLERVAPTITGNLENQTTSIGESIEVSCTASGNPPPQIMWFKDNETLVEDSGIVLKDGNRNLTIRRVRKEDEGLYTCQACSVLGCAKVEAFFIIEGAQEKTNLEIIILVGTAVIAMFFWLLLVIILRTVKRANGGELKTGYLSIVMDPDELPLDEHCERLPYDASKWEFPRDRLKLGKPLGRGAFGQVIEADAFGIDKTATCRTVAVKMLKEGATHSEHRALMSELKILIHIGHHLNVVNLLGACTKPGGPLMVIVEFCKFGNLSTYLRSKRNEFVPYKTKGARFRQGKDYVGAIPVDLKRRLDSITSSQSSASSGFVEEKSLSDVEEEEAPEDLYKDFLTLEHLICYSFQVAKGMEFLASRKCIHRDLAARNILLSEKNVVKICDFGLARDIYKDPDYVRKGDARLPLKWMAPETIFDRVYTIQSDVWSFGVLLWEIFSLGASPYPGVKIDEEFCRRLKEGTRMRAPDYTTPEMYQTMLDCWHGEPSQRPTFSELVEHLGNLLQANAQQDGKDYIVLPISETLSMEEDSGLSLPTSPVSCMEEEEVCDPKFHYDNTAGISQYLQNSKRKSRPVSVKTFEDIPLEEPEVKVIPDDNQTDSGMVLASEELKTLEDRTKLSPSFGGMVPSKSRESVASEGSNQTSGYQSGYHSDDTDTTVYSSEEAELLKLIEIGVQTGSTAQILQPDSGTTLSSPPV
# Molecular target: T1, CDK2/CycE (Homo sapiens, UniProt P24941)
# T1 construct: GST; purchased ProQinase GmbH, Freiburg; host or cells: baculovirus-infected insect cells (Sf9)
# Assay: CDK2/CycE Kinase Assay
# Type: biochemical
# Details: histone IIIS substrate, 33P-ATP, 15 minutes at 22° C.
row,IC50 [nM],SMILES
1,10,"C[C@@H](O)[C@@H](C)Oc1nc(Nc2ccc(S(C)(=N)=O)cc2)ncc1Br (mixture of isomers) [Example 1.4, (RS)-S-[4-({5-bromo-4-[(1R,2R)-2-hydroxy-1-methylpropoxy]pyrimidin-2-yl}amino)phenyl]-S-methyl sulfoximide]"
2,8,"COc1cc(Nc2ncc(Br)c(O[C@H](C)[C@@H](C)O)n2)ccc1S(C)(=N)=O (mixture of isomers) [Example 1.24, (RS)-S-[4-({5-bromo-4-[(1R,2R)-2-hydroxy-1-methylpropoxy]pyrimidin-2-yl}amino)-2-methoxyphenyl]-S-methyl sulfoximide]"
3,51,"CCOC(=O)N=S(=O)(CC)c1ccc(Nc2ncc(Br)c(N[C@H](COC)[C@@H](C)O)n2)cc1 (mixture of isomers) [Example 1.33, (RS)-S-{4-[(5-bromo-4-{[(1R,2R)-2-hydroxy-1-(methoxymethyl)propyl]amino}pyrimidin-2-yl)amino]phenyl}-N-(ethoxycarbonyl)-S-ethyl sulfoximide]"
4,7,"CCS(=N)(=O)c1ccc(Nc2ncc(Br)c(N[C@H](COC)[C@@H](C)O)n2)cc1 (mixture of isomers) [Example 1.48, (RS)-S-{4-[(5-bromo-4-{[(1R,2R)-2-hydroxy-1-(methoxymethyl)-propyl]amino}pyrimidin-2-yl)amino]phenyl}-S-ethyl sulfoximide]"
5,3,"COc1cc(Nc2ncc(Br)c(N[C@H](C)[C@@H](C)O)n2)ccc1S(C)(=N)=O (single isomer, unassigned) [Example 1.25]"

# Molecular target: T2, CDK1/CycB (Homo sapiens, UniProt P06493)
# T2 construct: GST; purchased ProQinase GmbH, Freiburg; host or cells: baculovirus-infected insect cells (Sf9)
# Assay: CDK1/CycB Kinase Assay
# Type: biochemical
# Details: CDK1/CycB IC50, histone IIIS substrate, 33P-ATP, 15 minutes at 22° C.
row,SMILES,IC50 [nM]
1,"C[C@H](CO)Nc1nc(Nc2ccc(S(C)(=O)=NS(=O)(=O)CC[Si](C)(C)C)cc2)ncc1Br (mixture of isomers) [Example 2.1, (RS)-S-[4-({5-bromo-4-[(R)-(2-hydroxy-1-methylethyl)amino]pyrimidin-2-yl}amino)phenyl]-S-methyl-N-[2-(trimethylsilyl)ethylsulfonyl]sulfoximide]",> 1000

# Same assay, conditions: histone IIIS substrate, 33P-ATP, 15 minutes at 22° C.; read-out: CDK1/CycB IC50
row,IC50 [nM],SMILES
1,110,"CCOC(=O)N=S(C)(=O)c1ccc(Nc2ncc(Br)c(N[C@H](COC)[C@@H](C)O)n2)cc1 (mixture of isomers) [Example 1.34, (RS)-S-{4-[(5-bromo-4-{[(1R,2R)-2-hydroxy-1-(methoxymethyl)propyl]amino}pyrimidin-2-yl)amino]phenyl}-N-(ethoxycarbonyl)-S-methyl sulfoximide]"
2,5,"C[C@@H](O)[C@@H](C)Nc1nc(Nc2ccc(S(C)(=N)=O)cc2)ncc1Br (mixture of isomers) [Example 1.44, (RS)-S-[4-({5-bromo-4-[(1R,2R)-(2-hydroxy-1-methylpropyl)amino]pyrimidin-2-yl}amino)phenyl]-S-methyl sulfoximide]"
3,16,"CCS(=N)(=O)c1ccc(Nc2ncc(Br)c(N[C@H](COC)[C@@H](C)O)n2)cc1 (mixture of isomers) [Example 1.48, (RS)-S-{4-[(5-bromo-4-{[(1R,2R)-2-hydroxy-1-(methoxymethyl)-propyl]amino}pyrimidin-2-yl)amino]phenyl}-S-ethyl sulfoximide]"
4,44,"CCS(=N)(=O)c1ccc(Nc2ncc(Br)c(N[C@H](COC)[C@@H](C)O)n2)cc1 (mixture of isomers) [Example 1.50, (RS)-S-{4-[(5-bromo-4-{[(1R,2R)-2-hydroxy-1-(methoxymethyl)-propyl]amino}pyrimidin-2-yl)amino]phenyl}-S-ethyl sulfoximide]"
5,8,"CCS(=N)(=O)c1ccc(Nc2ncc(Br)c(N[C@H](C)C(C)(C)O)n2)cc1 (mixture of isomers) [Example 1.54, (RS)-S-[4-({5-bromo-4-[(R)-(2-hydroxy-1,2-dimethylpropyl)amino]pyrimidin-2-yl}amino)phenyl]-S-ethyl sulfoximide]"
6,45,"CCS(=N)(=O)c1ccc(Nc2ncc(Br)c(N[C@H](C)C(C)(C)O)n2)cc1 (mixture of isomers) [Example 1.55, (RS)-S-[4-({5-bromo-4-[(R)-(2-hydroxy-1,2-dimethylpropyl)amino]pyrimidin-2-yl}amino)phenyl]-S-ethyl sulfoximide]"
7,9,"Cc1cc(Nc2ncc(Br)c(N[C@H](C)C(C)(C)O)n2)ccc1S(C)(=N)=O (mixture of isomers) [Example 1.59, (RS)-S-[4-({5-bromo-4-[(R)-(2-hydroxy-1,2-dimethylpropyl)amino]pyrimidin-2-yl}amino)-2-methylphenyl]-S-methyl sulfoximide]"

# Molecular target: T3, VEGF receptor tyrosine kinase-2 (Homo sapiens, UniProt P35968)
# T3 construct: GST; made in house; host or cells: baculovirus-infected insect cells (Sf9)
# Assay: VEGF Receptor-2 Kinase Assay
# Type: biochemical
# Details: poly-(Glu4Tyr) substrate, 33P-ATP, 10 minutes at 22° C.; read-out: VEGF-R2 IC50
row,IC50 [nM],SMILES
1,37,"CN=S(C)(=O)c1ccc(Nc2ncc(Br)c(N[C@H](C)[C@@H](C)O)n2)cc1 (mixture of isomers) [Example 1.28, (RS)-S-[4-({5-bromo-4-[(1R,2R)-(2-hydroxy-1-methylpropyl)amino]pyrimidin-2-yl}amino)phenyl]-N,S-dimethyl-sulfoximide]"
2,16,"CN=S(C)(=O)c1ccc(Nc2ncc(Br)c(N[C@H](C)[C@@H](C)O)n2)cc1 (mixture of isomers) [Example 1.29, (RS)-S-[4-({5-bromo-4-[(1R,2R)-(2-hydroxy-1-methylpropyl)amino]pyrimidin-2-yl}amino)phenyl]-N,S-dimethyl-sulfoximide]"
3,29,"CN=S(C)(=O)c1ccc(Nc2ncc(Br)c(N[C@H](C)[C@@H](C)O)n2)cc1 (mixture of isomers) [Example 1.30, (RS)-S-[4-({5-bromo-4-[(1R,2R)-(2-hydroxy-1-methylpropyl)amino]pyrimidin-2-yl}amino)phenyl]-N,S-dimethyl-sulfoximide]"
4,150,"CCOC(=O)N=S(=O)(CC)c1ccc(Nc2ncc(Br)c(O[C@H](C)[C@@H](C)O)n2)cc1 (mixture of isomers) [Example 1.39, (RS)-S-[4-({5-bromo-4-[(1R,2R)-2-hydroxy-1-methylpropoxy]pyrimidin-2-yl}amino)phenyl]-N-(ethoxycarbonyl)-S-ethyl sulfoximide]"
5,300,"COC[C@@H](Nc1nc(Nc2ccc(S(C)(=N)=O)cc2)ncc1Br)[C@@H](C)O (mixture of isomers) [Example 1.47, (RS)-S-{4-[(5-bromo-4-{[(1R,2R)-2-hydroxy-1-(methoxymethyl)-propyl]amino}pyrimidin-2-yl)amino]phenyl}-S-methyl sulfoximide]"
6,32,"CCS(=N)(=O)c1ccc(Nc2ncc(Br)c(N[C@H](C)C(C)(C)O)n2)cc1 (mixture of isomers) [Example 1.56, (RS)-S-[4-({5-bromo-4-[(R)-(2-hydroxy-1,2-dimethylpropyl)amino]pyrimidin-2-yl}amino)phenyl]-S-ethyl sulfoximide]"
7,70,"COc1cc(Nc2ncc(Br)c(N[C@H](C)[C@@H](C)O)n2)ccc1S(C)(=N)=O (single isomer, unassigned) [Example 1.25]"
